Assay results taken from PubChem BioAssay AID1194 (EPA DSSTox, 2008).
The source made the active and inactive calls.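 How the source made its calls: active means chemicals rated mutagenic or weakly mutagenic in the Salmonella bacterial test by one literature review, or positive overall by another; inconclusive means no clear call, values can overlap the other calls; inactive means the rest.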

The compounds below were run on Salmonella typhimurium Ames mutagenicity, literature compiled (assay: DSSTox (CPDBAS) Carcinogenic Potency Database Salmonella Mutagenicity).
Source text: The Carcinogenic Potency Database (CPDB) is a unique and widely used international resource of the results of over 6500 chronic, long-term animal cancer tests on over 1500 chemical substances. The CPDB provides easy access to the bioassay literature, with qualitative and quantitative analyses of both positive and negative experiments that have been published over the past 50 years in the general literature and by the National Cancer Institute/National Toxicology Program. The CPDB standardizes the diverse literature of cancer bioassays that vary widely in protocol, histopathological examination and nomenclature, and in the published author's choices of what information to provide in their papers. Results are reported in the CPDB for tests in rats, mice, hamsters, dogs, and nonhuman primates, and are based on the most positive result among all experiments for each sex-species. The DSSTox CPDBAS (all species) file incorporates data from the CPDB Summary Tables for the full list of over 1500 chemical substances tested in at least one species.
A chemical is classified within the CPDB as mutagenic, i.e. "active", in the Salmonella assay if it was evaluated overall as either "mutagenic" or "weakly mutagenic" by Zeiger [Zeiger, E. (1997) Genotoxicity Database. In: Gold and Zeiger, Eds. Handbook of Carcinogenic Potency and Genotoxicity Databases. Boca Raton, FL: CRC Press, pp. 687-729. http://potency.berkeley.edu/CRCbook.html] or as overall "positive" by the EPA Gene-Tox Program [Kier et al. (1986) Mutat. Res. 168: 69-240].
In the case of `COP(C)(=O)OC`, the outcome is reported as “inactive; active”. In the case of `ClCl`, the outcome is reported as “inactive; active”. For `O=[N+]([O-])OCC(CO[N+](=O)[O-])(CO[N+](=O)[O-])CO[N+](=O)[O-]`, the outcome was “inactive; active”.
